Source: patent US7854753B2, “Photokinetic delivery of biologically active substances using pulsed incoherent light” (Photokinetix, Inc., priority 2002, dated 2010)

Experiment: Franz skin diffusion cell permeation (percutaneous absorption) under ambient, natural or pulsed incoherent LED light

Q: For CSCC[C@H](NC(=O)[C@H](Cc1ccccc1)NC(=O)CNC(=O)CNC(=O)[C@@H](N)Cc1ccc(O)cc1)C(=O)O, which “% Permeation (percent increase or decrease vs dark baseline, equation 1)” value (350 + TiO2, 24 cps vs Dark-TiO2) is on record?
A: The value was 9746.67%.

Q: What about the “% Permeation (percent increase or decrease vs dark baseline, equation 1)” value (350 + TiO2, 80 cps vs Dark-TiO2) of the same molecule?
A: The value was 60.33%.

Q: What about the Permeation (350 + TiO2, pulse rate 24 cps) of the same molecule?
A: Its Permeation is 103.39 μg/cm^2/24 hrs.

Q: And the Permeation (350 + TiO2, pulse rate 80 cps)?
A: The Permeation was 32.66 μg/cm^2/24 hrs.

Q: What about the Permeation (350 nm LED, pulse rate 24 cps) of the same molecule?
A: Its Permeation is 94.84 μg/cm^2/24 hrs.

Q: And the Permeation (350 nm LED, pulse rate 80 cps)?
A: Its Permeation is 30.59 μg/cm^2/24 hrs.

Q: And the “% Permeation (percent increase or decrease vs dark baseline, equation 1)” value (350 nm, 24 cps vs Dark)?
A: The value was 175.78%.

Q: What about the “% Permeation (percent increase or decrease vs dark baseline, equation 1)” value (350 nm, 80 cps vs Dark) of the same molecule?
A: Its value is 40.97%.

Q: And the “% Permeation (percent increase or decrease vs dark baseline, equation 1)” value (390 + TiO2, 24 cps vs Dark-TiO2)?
A: Its value is 9721.90%.

Q: And the “% Permeation (percent increase or decrease vs dark baseline, equation 1)” value (390 + TiO2, 80 cps vs Dark-TiO2)?
A: The value was 73.24%.

Q: And the Permeation (390 + TiO2, pulse rate 24 cps)?
A: Its Permeation is 103.13 μg/cm^2/24 hrs.

Q: And the Permeation (390 + TiO2, pulse rate 80 cps)?
A: The Permeation was 35.29 μg/cm^2/24 hrs.

Q: And the Permeation (390 nm LED, pulse rate 24 cps)?
A: Its Permeation is 68.27 μg/cm^2/24 hrs.

Q: What about the Permeation (390 nm LED, pulse rate 80 cps) of the same molecule?
A: The Permeation was 38.24 μg/cm^2/24 hrs.

Q: And the “% Permeation (percent increase or decrease vs dark baseline, equation 1)” value (390 nm, 24 cps vs Dark)?
A: Its value is 98.52%.

Q: What about the “% Permeation (percent increase or decrease vs dark baseline, equation 1)” value (390 nm, 80 cps vs Dark) of the same molecule?
A: Its value is 76.22%.

Q: And the “% Permeation (percent increase or decrease vs dark baseline, equation 1)” value (405 + TiO2, 24 cps vs Dark-TiO2)?
A: The value was 19603.81%.

Q: And the “% Permeation (percent increase or decrease vs dark baseline, equation 1)” value (405 + TiO2, 80 cps vs Dark-TiO2)?
A: The value was −32.84%.

Q: And the Permeation (405 + TiO2, pulse rate 24 cps)?
A: Its Permeation is 206.89 μg/cm^2/24 hrs.

Q: And the Permeation (405 + TiO2, pulse rate 80 cps)?
A: Its Permeation is 13.68 μg/cm^2/24 hrs.

Q: And the Permeation (405 nm LED, pulse rate 24 cps)?
A: Its Permeation is 108.21 μg/cm^2/24 hrs.

Q: What about the Permeation (405 nm LED, pulse rate 80 cps) of the same molecule?
A: Its Permeation is 26.86 μg/cm^2/24 hrs.

Q: And the “% Permeation (percent increase or decrease vs dark baseline, equation 1)” value (405 nm, 24 cps vs Dark)?
A: Its value is 214.66%.

Q: What about the “% Permeation (percent increase or decrease vs dark baseline, equation 1)” value (405 nm, 80 cps vs Dark) of the same molecule?
A: Its value is 23.78%.

Q: And the “% Permeation (percent increase or decrease vs dark baseline, equation 1)” value (450 + TiO2, 24 cps vs Dark-TiO2)?
A: The value was 14509.52%.

Q: What about the “% Permeation (percent increase or decrease vs dark baseline, equation 1)” value (450 + TiO2, 80 cps vs Dark-TiO2) of the same molecule?
A: Its value is 41.78%.

Q: And the Permeation (450 + TiO2, pulse rate 24 cps)?
A: Its Permeation is 153.40 μg/cm^2/24 hrs.

Q: And the Permeation (450 + TiO2, pulse rate 80 cps)?
A: The Permeation was 28.88 μg/cm^2/24 hrs.

Q: What about the Permeation (450 nm LED, pulse rate 24 cps) of the same molecule?
A: The Permeation was 298.91 μg/cm^2/24 hrs.

Q: And the Permeation (450 nm LED, pulse rate 80 cps)?
A: The Permeation was 27.10 μg/cm^2/24 hrs.

Q: What about the “% Permeation (percent increase or decrease vs dark baseline, equation 1)” value (450 nm, 24 cps vs Dark) of the same molecule?
A: The value was 769.18%.

Q: And the “% Permeation (percent increase or decrease vs dark baseline, equation 1)” value (450 nm, 80 cps vs Dark)?
A: Its value is 24.88%.

Q: And the “Permeation Dark” value (Dark control, ambient light absent)?
A: The value was 31.56 μg/0.64 cm^2/25 hrs.

Q: And the Permeation (Dark control, 24 cps series)?
A: The Permeation was 34.39 μg/cm^2/24 hrs.

Q: And the Permeation (Dark control, 80 cps series)?
A: The Permeation was 21.70 μg/cm^2/24 hrs.

Q: What about the Permeation (Dark-TiO2 control (2% TiO2), 24 cps series) of the same molecule?
A: Its Permeation is 1.05 μg/cm^2/24 hrs.

Q: What about the Permeation (Dark-TiO2 control (2% TiO2), 80 cps series) of the same molecule?
A: The Permeation was 20.37 μg/cm^2/24 hrs.

Q: What about the Permeation (Day (natural daylight, not pulsed), control of the 24 cps series) of the same molecule?
A: Its Permeation is 4.44 μg/cm^2/24 hrs.

Q: And the Permeation (Day (natural daylight, not pulsed), control of the 80 cps series)?
A: Its Permeation is 24.44 μg/cm^2/24 hrs.

Q: What about the “% Permeation (percent increase or decrease vs dark baseline, equation 1)” value (Day vs Dark, 24 cps series) of the same molecule?
A: Its value is −87.09%.

Q: And the “% Permeation (percent increase or decrease vs dark baseline, equation 1)” value (Day vs Dark, 80 cps series)?
A: The value was 12.63%.

Q: What about the Permeation (Day-TiO2 (natural daylight, 2% TiO2, not pulsed), control of the 24 cps series) of the same molecule?
A: The Permeation was 8.40 μg/cm^2/24 hrs.

Q: What about the Permeation (Day-TiO2 (natural daylight, 2% TiO2, not pulsed), control of the 80 cps series) of the same molecule?
A: Its Permeation is 18.67 μg/cm^2/24 hrs.

Q: And the “% Permeation (percent increase or decrease vs dark baseline, equation 1)” value (Day-TiO2 vs Dark-TiO2, 24 cps series)?
A: Its value is 700.00%.

Q: What about the “% Permeation (percent increase or decrease vs dark baseline, equation 1)” value (Day-TiO2 vs Dark-TiO2, 80 cps series) of the same molecule?
A: Its value is −8.35%.

Q: What about the 405/1.7 (Table 10, 405 nm, 1.7 cps) of the same molecule?
A: Its 405/1.7 is 35.47.

Q: What about the 405/9.7 (Table 10, 405 nm, 9.7 cps) of the same molecule?
A: The 405/9.7 was 27.57.

Q: And the 405/24 (Table 10, 405 nm, 24 cps)?
A: The 405/24 was 6.86.

Q: What about the Ctrl (Table 10 peptides, ambient light only) of the same molecule?
A: Its Ctrl is 0.00.

Q: What about the “Permeation Ctrl” value (ambient cool fluorescent light only, 260-750 nm, 120 cps) of the same molecule?
A: Its value is 0.00 μg/0.64 cm^2/25 hrs.

Q: And the “Permeation Ctrl-TiO2” value (ambient fluorescent light, sample with 2% (w/w) rutile TiO2)?
A: The value was 0.00 μg/0.64 cm^2/25 hrs.
